We go through 31 compounds from patent publication US20200317660A1, “Quinazolinone Compound and Application Thereof” (LUOXIN PHARMACEUTICAL (SHANGHAI) CO., LTD., priority 2017, published 2020).

Chains of the proteins cited; added tags and fusions are not shown.
UniProt P42338, whole entry: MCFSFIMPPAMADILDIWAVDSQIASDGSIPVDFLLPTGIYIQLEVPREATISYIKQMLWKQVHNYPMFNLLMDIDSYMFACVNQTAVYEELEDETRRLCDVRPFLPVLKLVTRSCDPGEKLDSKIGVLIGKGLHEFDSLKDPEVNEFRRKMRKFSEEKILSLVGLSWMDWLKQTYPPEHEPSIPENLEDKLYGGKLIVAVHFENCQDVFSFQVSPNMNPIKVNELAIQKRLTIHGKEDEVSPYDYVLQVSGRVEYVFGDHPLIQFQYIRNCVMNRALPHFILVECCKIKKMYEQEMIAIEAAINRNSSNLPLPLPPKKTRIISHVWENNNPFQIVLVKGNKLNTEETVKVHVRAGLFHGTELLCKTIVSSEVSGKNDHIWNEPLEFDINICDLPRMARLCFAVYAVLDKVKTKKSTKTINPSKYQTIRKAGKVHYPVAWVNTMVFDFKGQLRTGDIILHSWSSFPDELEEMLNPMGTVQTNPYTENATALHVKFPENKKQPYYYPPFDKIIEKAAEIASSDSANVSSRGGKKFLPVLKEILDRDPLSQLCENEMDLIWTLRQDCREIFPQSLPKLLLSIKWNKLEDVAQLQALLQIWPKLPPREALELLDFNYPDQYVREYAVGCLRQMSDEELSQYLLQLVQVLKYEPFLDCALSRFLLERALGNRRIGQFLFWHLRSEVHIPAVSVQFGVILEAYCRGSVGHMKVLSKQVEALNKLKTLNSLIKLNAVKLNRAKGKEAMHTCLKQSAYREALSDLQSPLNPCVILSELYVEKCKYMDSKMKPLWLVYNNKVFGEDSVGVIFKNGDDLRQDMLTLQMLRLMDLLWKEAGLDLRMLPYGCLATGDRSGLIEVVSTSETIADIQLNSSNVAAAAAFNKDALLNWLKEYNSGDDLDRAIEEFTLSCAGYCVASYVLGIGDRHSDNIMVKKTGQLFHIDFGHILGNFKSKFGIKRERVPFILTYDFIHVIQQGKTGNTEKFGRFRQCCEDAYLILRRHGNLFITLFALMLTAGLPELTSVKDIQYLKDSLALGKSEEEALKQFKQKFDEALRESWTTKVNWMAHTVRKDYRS
UniProt P42336, whole entry: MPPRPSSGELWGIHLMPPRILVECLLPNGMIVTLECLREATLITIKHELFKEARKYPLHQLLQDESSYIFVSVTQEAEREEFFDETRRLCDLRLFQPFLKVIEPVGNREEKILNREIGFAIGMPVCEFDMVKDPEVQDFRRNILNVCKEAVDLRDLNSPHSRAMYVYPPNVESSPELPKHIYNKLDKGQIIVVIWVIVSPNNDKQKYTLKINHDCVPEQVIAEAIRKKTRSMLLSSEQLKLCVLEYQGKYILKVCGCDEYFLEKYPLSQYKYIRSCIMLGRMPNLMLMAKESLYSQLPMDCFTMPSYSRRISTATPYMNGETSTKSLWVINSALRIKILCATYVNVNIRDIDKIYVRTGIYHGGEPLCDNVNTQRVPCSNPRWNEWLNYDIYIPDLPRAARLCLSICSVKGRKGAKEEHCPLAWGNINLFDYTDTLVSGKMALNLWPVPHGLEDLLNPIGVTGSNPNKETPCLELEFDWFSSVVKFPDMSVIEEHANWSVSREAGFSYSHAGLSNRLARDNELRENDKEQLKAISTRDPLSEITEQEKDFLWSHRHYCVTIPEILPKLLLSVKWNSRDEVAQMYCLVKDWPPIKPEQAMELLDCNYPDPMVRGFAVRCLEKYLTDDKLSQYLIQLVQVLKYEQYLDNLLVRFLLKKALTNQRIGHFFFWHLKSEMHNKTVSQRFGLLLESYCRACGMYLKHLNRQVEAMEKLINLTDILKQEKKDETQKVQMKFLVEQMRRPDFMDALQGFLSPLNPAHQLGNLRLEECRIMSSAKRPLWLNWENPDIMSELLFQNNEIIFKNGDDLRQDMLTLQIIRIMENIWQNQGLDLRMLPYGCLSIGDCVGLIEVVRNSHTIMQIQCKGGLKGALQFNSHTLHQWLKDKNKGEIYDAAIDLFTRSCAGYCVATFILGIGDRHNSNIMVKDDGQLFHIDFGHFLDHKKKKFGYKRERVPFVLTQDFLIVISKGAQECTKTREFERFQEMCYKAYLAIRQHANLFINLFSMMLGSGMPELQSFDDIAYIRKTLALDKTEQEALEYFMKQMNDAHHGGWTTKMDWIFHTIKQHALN
UniProt P27986, whole entry partner: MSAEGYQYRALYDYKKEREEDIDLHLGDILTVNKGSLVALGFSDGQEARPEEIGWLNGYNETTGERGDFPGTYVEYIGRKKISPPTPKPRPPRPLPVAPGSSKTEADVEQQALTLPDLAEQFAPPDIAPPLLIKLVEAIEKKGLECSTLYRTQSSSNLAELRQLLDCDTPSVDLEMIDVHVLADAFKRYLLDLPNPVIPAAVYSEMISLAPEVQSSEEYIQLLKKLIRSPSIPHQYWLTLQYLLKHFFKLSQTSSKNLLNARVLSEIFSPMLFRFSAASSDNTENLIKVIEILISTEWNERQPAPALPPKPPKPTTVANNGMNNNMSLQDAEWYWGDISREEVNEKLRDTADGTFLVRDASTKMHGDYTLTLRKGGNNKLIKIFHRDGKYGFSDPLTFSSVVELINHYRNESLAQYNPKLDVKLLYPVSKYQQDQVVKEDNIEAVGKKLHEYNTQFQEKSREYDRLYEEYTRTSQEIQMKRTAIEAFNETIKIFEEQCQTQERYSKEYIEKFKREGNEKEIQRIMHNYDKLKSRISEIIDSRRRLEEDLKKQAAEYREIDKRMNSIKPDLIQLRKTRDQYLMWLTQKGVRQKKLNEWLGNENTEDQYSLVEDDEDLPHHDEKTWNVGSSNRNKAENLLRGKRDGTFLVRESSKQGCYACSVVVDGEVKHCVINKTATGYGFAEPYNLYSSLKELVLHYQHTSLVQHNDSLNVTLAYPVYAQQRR

For experiment [1], the target named is PI3Kβ (Homo sapiens, UniProt P42338). The experiment in a line: In vitro test of enzyme activity (ADP-Glo lipokinase), PI3K beta. To be noted: read-out: PI3Kβ IC50, 40 μM ATP, 50 μM PIP2:3PS, 120 min.
Experiment [2] concerns the target PI3Kα (Homo sapiens, UniProt P42336). The experiment in a line: In vitro test of enzyme activity (ADP-Glo lipokinase), PI3K alpha. To be noted: read-out: PI3Kα IC50, 40 μM ATP, 50 μM PIP2:3PS, 120 min.

With `CNC(=O)C(C)Cn1cnc2cc(F)c(-c3cnc(OC)c(NS(=O)(=O)c4ccc(F)cc4Cl)c3)cc2c1=O` (single isomer, unassigned) [WX122], the results for the IC50 in experiment [1] and in experiment [2] were 2260 nM and 54.6 nM, respectively.
The matching figures for `CNC(=O)C(C)Cn1cnc2ccc(-c3cnc(OC)c(NS(=O)(=O)c4ccc(C)cc4F)c3)cc2c1=O` (single isomer, unassigned) [WX134]: 101 nM and 4.71 nM.
The matching figures for `CNC(=O)C(C)Cn1cnc2ccc(-c3cnc(OC)c(NS(=O)(=O)c4cc(F)ccc4F)c3)cc2c1=O` (single isomer, unassigned) [WX223]: 184 nM and 5.37 nM.
As for `COc1ncc(-c2ccc3ncn(CC(C)C(=O)NC4CCC4)c(=O)c3c2)cc1NS(=O)(=O)c1ccc(F)cc1Cl` (single isomer, unassigned) [WX075], the figures for the IC50 in experiment [1] and in experiment [2] were 386 nM and 12.3 nM, respectively.
The matching figures for `CNC(=O)C(C)Cn1cnc2ccc(-c3cnc(OC)c(NS(=O)(=O)c4ccc(C)c(C)c4)c3)cc2c1=O` (single isomer, unassigned) [WX169]: 386 nM and 14.1 nM.
For the compound `CNC(=O)C(C)Cn1cnc2ccc(-c3cnc(OC)c(NS(=O)(=O)c4ccc(C)c(C)c4)c3)cc2c1=O` (single isomer, unassigned) [WX168], the figures for the IC50 in experiment [1] and in experiment [2] were 546 nM and 6.27 nM, respectively.
Regarding `CNC(=O)C(C)Cn1cnc2ccc(-c3cnc(OC)c(NS(=O)(=O)c4cccc(Cl)c4C)c3)cc2c1=O` (single isomer, unassigned) [WX138], the figures for the IC50 in experiment [1] and in experiment [2] were 203 nM and 5.22 nM, respectively.
The matching figures for `CNC(=O)C(C)Cn1cnc2ccc(-c3cnc(OC)c(NS(=O)(=O)c4cccc(Cl)c4)c3)cc2c1=O` (single isomer, unassigned) [WX165]: 250 nM and 5.05 nM.
As for `COc1ncc(-c2ccc3ncn(CC(C)C(=O)NC4COC4)c(=O)c3c2)cc1NS(=O)(=O)c1ccc(F)cc1Cl` (single isomer, unassigned) [WX082], the figures for the IC50 in experiment [1] and in experiment [2] were 192 nM and 4.57 nM, respectively.
In the same order, the values of `CNC(=O)C(C)Cn1cnc2ccc(-c3cnc(OC)c(NS(=O)(=O)c4c(F)cccc4F)c3)cc2c1=O` (single isomer, unassigned) [WX102] are 94.4 nM and 4.1 nM.
For `CNC(=O)C(C)Cn1cnc2ccc(-c3cnc(OC)c(NS(=O)(=O)c4cccc(Cl)c4)c3)cc2c1=O` (single isomer, unassigned) [WX164], the IC50 was found to be 178 nM in experiment [1] and 8.24 nM in experiment [2].
In the same order, the values of `CNC(=O)C(C)Cn1cnc2ccc(-c3cnc(OC)c(NS(=O)(=O)c4ccccc4Cl)c3)cc2c1=O` (single isomer, unassigned) [WX146] are 95.4 nM and 2.7 nM.
Consider `CNC(=O)C(C)Cn1cnc2ccc(-c3cnc(OC)c(NS(=O)(=O)c4ccccc4F)c3)cc2c1=O` (single isomer, unassigned), for which the IC50 turned out to be 133 nM in experiment [1] and 5.12 nM in experiment [2].
The matching figures for `CNC(=O)C(C)Cn1cnc2ccc(-c3cnc(OC)c(NS(=O)(=O)c4cc(C)cc(C)c4)c3)cc2c1=O` (single isomer, unassigned) [WX144]: 631 nM and 24 nM.
In the same order, the values of `Cc1nc(C)c(S(=O)(=O)Nc2cc(-c3ccc4ncn(CC(C)C(N)=O)c(=O)c4c3)cnc2C)s1` (single isomer, unassigned) [WX033] are 126 nM and 1.09 nM.
As for `CNC(=O)C(C)Cn1cnc2ccc(-c3cnc(OC)c(NS(=O)(=O)c4cccc(F)c4)c3)cc2c1=O` (single isomer, unassigned) [WX163], the IC50 in experiment [1] stood at 268 nM; in experiment [2] it was 6.51 nM.
In the same order, the values of `CNC(=O)C(C)Cn1cnc2ccc(-c3cnc(OC)c(NS(=O)(=O)c4ccc(C(F)(F)F)cc4Cl)c3)cc2c1=O` (single isomer, unassigned) [WX211] are 192 nM and 3.07 nM.
As to `COc1ncc(-c2ccc3ncn(CC(C)C(=O)NC4CC4(F)F)c(=O)c3c2)cc1NS(=O)(=O)c1ccc(F)cc1Cl` (centres unmarked), the IC50 in experiment [1] was found to be 720 nM; in experiment [2] it was 6.19 nM.
In the same order, the values of `CNC(=O)C(C)Cn1cnc2ccc(-c3cnc(OC)c(NS(=O)(=O)c4ccc(F)c(C)c4)c3)cc2c1=O` (single isomer, unassigned) [WX155] are 411 nM and 13 nM.
As for `CNC(=O)C(C)Cn1cnc2ccc(-c3cnc(OC)c(NS(=O)(=O)c4cccc(C(F)(F)F)c4)c3)cc2c1=O` (single isomer, unassigned) [WX098], the values for the IC50 in experiment [1] and in experiment [2] were 492 nM and 10 nM, respectively.
As to `COc1ncc(-c2ccc3ncn(CC(C)C(=O)NCCO)c(=O)c3c2)cc1NS(=O)(=O)c1ccc(F)cc1Cl` (single isomer, unassigned) [WX081], the figures for the IC50 in experiment [1] and in experiment [2] were 150 nM and 3.55 nM, respectively.
As to `CNC(=O)C(C)Cn1cnc2ccc(-c3cnc(OC)c(NS(=O)(=O)c4cc(Cl)cc(Cl)c4)c3)cc2c1=O` (single isomer, unassigned) [WX227], the IC50 in experiment [1] was 326 nM; in experiment [2], 6.68 nM.
In the same order, the values of `COc1ncc(-c2ccc3ncn(CC(C)C(=O)NC4COC4)c(=O)c3c2)cc1NS(=O)(=O)c1ccc(F)cc1Cl` (single isomer, unassigned) [WX083] are 548 nM and 2.09 nM.
In the same order, the values of `CNC(=O)C(C)Cn1cnc2ccc(-c3cnc(OC)c(NS(=O)(=O)c4cc(C)ccc4C)c3)cc2c1=O` (single isomer, unassigned) [WX171] are 443 nM and 8.87 nM.
Turning to `COc1ncc(-c2ccc3ncn(CC(C)C(=O)NCC(C)C)c(=O)c3c2)cc1NS(=O)(=O)c1ccc(F)cc1Cl` (single isomer, unassigned) [WX073], the IC50 in experiment [1] was 1070 nM; in experiment [2], 15.3 nM.
The matching figures for `CNC(=O)C(C)Cn1cnc2ccc(-c3cnc(OC)c(NS(=O)(=O)c4ccc(C)cc4Cl)c3)cc2c1=O` (single isomer, unassigned) [WX176]: 101 nM and 3.13 nM.
In the same order, the values of `CNC(=O)C(C)Cn1cnc2ccc(-c3cnc(OC)c(NS(=O)(=O)c4ccc(F)cc4F)c3)cc2c1=O` (single isomer, unassigned) [WX090] are 124 nM and 3.94 nM.
In the same order, the values of `CNC(=O)C(C)Cn1cnc2ccc(-c3cnc(OC)c(NS(=O)(=O)c4ccc(F)cc4Cl)c3)c(F)c2c1=O` (single isomer, unassigned) [WX123] are 268 nM and 9.27 nM.
Regarding `Cc1ccsc1S(=O)(=O)Nc1cc(-c2ccc3ncn(CC(C)C(N)=O)c(=O)c3c2)cnc1C` (single isomer, unassigned) [WX026], the IC50 in experiment [1] was 928 nM; in experiment [2] it was 5.4 nM.
The matching figures for `CNC(=O)C(C)Cn1cnc2ccc(-c3cnc(OC)c(NS(=O)(=O)c4cccc(C)c4)c3)cc2c1=O` (single isomer, unassigned) [WX141]: 745 nM and 9.76 nM.
The matching figures for `COc1ncc(-c2ccc3ncn(CC(C)C(=O)NC(C)C)c(=O)c3c2)cc1NS(=O)(=O)c1ccc(F)cc1Cl` (single isomer, unassigned) [WX079]: 447 nM and 11.1 nM.
